Drawing on PubChem BioAssay AID488960 (Johns Hopkins Ion Channel Center, 2010), this text covers inhibition for four compounds.

Amino acid sequences for entries named in this document (tags omitted). A change or cut given only in a name is not applied to a line headed by its entry.
UniProt Q61143: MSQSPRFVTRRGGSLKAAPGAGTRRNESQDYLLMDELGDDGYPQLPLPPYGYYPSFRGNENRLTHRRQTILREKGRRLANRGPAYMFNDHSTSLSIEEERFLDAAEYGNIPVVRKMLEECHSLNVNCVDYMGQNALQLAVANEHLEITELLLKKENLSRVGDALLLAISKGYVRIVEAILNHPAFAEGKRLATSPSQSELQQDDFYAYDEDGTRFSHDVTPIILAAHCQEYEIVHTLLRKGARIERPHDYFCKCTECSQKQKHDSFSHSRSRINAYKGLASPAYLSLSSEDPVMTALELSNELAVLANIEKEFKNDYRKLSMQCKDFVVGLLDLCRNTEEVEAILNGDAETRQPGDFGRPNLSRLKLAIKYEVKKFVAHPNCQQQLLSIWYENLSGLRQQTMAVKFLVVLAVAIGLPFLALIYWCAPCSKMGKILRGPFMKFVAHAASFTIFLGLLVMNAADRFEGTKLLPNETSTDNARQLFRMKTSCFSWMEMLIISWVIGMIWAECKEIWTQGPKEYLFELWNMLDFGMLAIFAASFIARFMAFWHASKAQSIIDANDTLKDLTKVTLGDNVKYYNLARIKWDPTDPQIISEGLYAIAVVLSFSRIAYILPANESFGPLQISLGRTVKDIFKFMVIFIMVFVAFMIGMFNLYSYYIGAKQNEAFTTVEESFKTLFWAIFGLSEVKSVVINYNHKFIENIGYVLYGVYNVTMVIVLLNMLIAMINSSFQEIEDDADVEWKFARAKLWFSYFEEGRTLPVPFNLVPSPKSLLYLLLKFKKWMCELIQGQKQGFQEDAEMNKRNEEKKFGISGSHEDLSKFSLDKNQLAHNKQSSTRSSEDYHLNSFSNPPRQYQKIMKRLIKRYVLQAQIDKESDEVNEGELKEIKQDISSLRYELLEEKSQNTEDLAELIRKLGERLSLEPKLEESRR

Only a part is listed here, and it is no random draw. Activity calls are given as the source filed them.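 Rule for the calls: active = fluorescence ratio falls more than 5 SD below the full-stimulation control mean, in both duplicate runs; inactive = the rest.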

For the test, the target named is Short transient receptor potential channel 6 (Mus musculus) (UniProt Q61143). Kind of test: mouse TRPC6 channel inhibitors, confirmation, HEK293 cells, membrane potential dye, duplicate (AID 488960).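 Note: integrated fluorescence ratio of peak minus minimum over baseline after agonist.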 To be noted: ACh-evoked depolarization, at 10 µM, stronger effect = higher value.
As for `O=[N+]([O-])c1ccc(O)c(/C=N/Nc2ccc([N+](=O)[O-])cc2[N+](=O)[O-])c1`, the inhibition – broadly, the change of the read-out against control, counted positive when it falls – is inactive: 0%.

In the case of `CN1CCCC(OC(=O)C(c2ccccc2)c2ccccc2)C1` (centres undefined), the inhibition is inactive: 0%.

For `O=C(OC1CN2CCC1CC2)C12CC3CC(CC(C3)C1)C2` (centres undefined), the inhibition was active: 77.5%.

Consider `CCC1=CC2Cc3nc4ccc(Cl)cc4c(N)c3C(C1)C2` (centres undefined), for which the inhibition is active: 110%.
